In patent publication CN116723860A (NOVARTIS AG, dated 2023):

Tests used:
重组人IL-18 = molecular target: T1, 重组人IL-18 (human, UniProt Q14116 37-193); assay: SET, simultaneous target binding assays A and B
T1 construct: also called huIL-18; BTP 25829

重组人IL-1β = molecular target: T2, 重组人IL-1β (human, UniProt P01584 117-269); assay: solution equilibrium titration (SET), single target binding assay, mean KD
T2 construct: also called huIL-1β; IL-1b

B1: bbmAb1 (bispecific antibody, human IgG1, kappa, lambda, L234A L235A)
heavy 1: not shown
light 1: not shown
heavy 2: not shown
light 2: EIVLTQSPDFQSVTPKEKVTITCRASQSIGSSLHWYQQKPDQSPKLLIKYASQSFSGVPSRFSGSGSGTDFTLTINSLEAEDAAAYYCHQSSSLPFTFGPGTKVDIKRTVAAPSVFIFPPSDEQLKSGTASVVCLLNNFYPREAKVQWKVDNALQSGNSQESVTEQDSKDSTYSLSSTLTLSKADYEKHKVYACEVTHQGLSSPVTKSFNRGEC
What does the source list for B1?
binding result (重组人IL-18): binds; Kd (重组人IL-1β): 2.6 pM
